# Experimental data as given in patent US6703371B1, “Preparations for reducing oxygen consumption during physical efforts” (priority 1999, dated 2004).
# Where two headings read alike, the source gives them in different places.
# Assays:
# test subject [1] = assay: Bicycle ergometer test at 125 W: effect of active ingredients on heart rate, oxygen demand and heat production (Example 1a); type: in vivo, human; conditions: for Average heart rate after: 10-minute test at 125 W immediately after administration
# test subject [2] = assay: 30-minute bicycle ergometer test at 125 W: test substances alone or with caffeine/amino acid/vitamin product A (Example 6); type: in vivo, human; conditions: alone or with product A as labelled, 30-minute test at 125 W
# [3] = Homo sapiens, 10 min, 1 mg in 20 ml of water, 10-minute test at 125 W, from change in humidity, read-out: Heat production (deviation from the average of all the tests)
# [4] = Homo sapiens, 10 min, 1 mg in 20 ml of water, 10-minute test at 125 W, read-out: Change in the oxygen demand
compound,measurement,setting,value
CN(C)CCC=C1c2ccccc2CCc2ccccc21 [amitriptyline],Average heart rate after,test subject [1]; 1 mg in 20 ml of water,112.0 per minute
same,change in vivo at 1 mg,test subject [1]; [3],13%
same,change in vivo at 1 mg,test subject [1]; [4],0%
O=C1O[C@H]([C@@H](O)CO)C(O)=C1O [ascorbic acid],Effect on heat production (change from control test without test substances),test subject [2]; 500 mg of ascorbic acid,+380 kJ
same,Effect on oxygen demand (change from control test without test substances),test subject [2]; 500 mg of ascorbic acid,+19 l
O=C1CN=C(c2ccccn2)c2cc(Br)ccc2N1 [bromazepam],Average heart rate after,test subject [1]; 1 mg in 20 ml of water,118.2 per minute
Cn1c(=O)c2c(ncn2C)n(C)c1=O [caffeine],Average heart rate after,test subject [1]; 25 mg in 20 ml of water,97.1 per minute
same,change in vivo at 25 mg,"test subject [1]; Homo sapiens, 10 min, 25 mg in 20 ml of water, 10-minute test at 125 W",-26%
CCOC(=O)n1ccn(C)c1=S [carbimazole],Average heart rate after,test subject [1]; 5 mg in 20 ml of water,104.9 per minute
same,change in vivo at 5 mg,"test subject [1]; Homo sapiens, 10 min, 5 mg in 20 ml of water, 10-minute test at 125 W, from change in humidity, read-out: Heat production (deviation from the average of all the tests)",-26%
same,change in vivo at 5 mg,"test subject [1]; Homo sapiens, 10 min, 5 mg in 20 ml of water, 10-minute test at 125 W, read-out: Change in the oxygen demand",-30%
CNC1=Nc2ccc(Cl)cc2C(c2ccccc2)=[N+]([O-])C1 [chlordiazepoxide],Average heart rate after,test subject [1]; 1 mg in 20 ml of water,110.2 per minute
"CN(C)CC/C=C1/c2ccccc2Sc2ccc(Cl)cc21 [chlorprothixen, chlorprothixene]",Change in the oxygen demand,"test subject [1]; 1 mg in 20 ml of water, 10-minute test at 125 W",0%
same,Average heart rate after,test subject [1]; 1 mg in 20 ml of water,112.0 per minute
same,Heat production (deviation from the average of all the tests),"test subject [1]; 1 mg in 20 ml of water, 10-minute test at 125 W, from change in humidity",+13%
same,Average heart rate before,test subject [1]; 10-minute control test at 125 W before administration,106.1 per minute
CN1CCC[C@@H]1CCO[C@](C)(c1ccccc1)c1ccc(Cl)cc1 [clemastine],Average heart rate after,test subject [1]; 1 mg in 20 ml of water,102.2 per minute
same,change in vivo at 1 mg,test subject [1]; [3],-30%
same,change in vivo at 1 mg,test subject [1]; [4],-37%
CN1C(=O)CC(=O)N(c2ccccc2)c2cc(Cl)ccc21 [clobazam],Average heart rate after,test subject [1]; 1 mg in 20 ml of water,80.8 per minute
CN(C)CCCN1c2ccccc2CCc2ccc(Cl)cc21 [clomipramine],Average heart rate after,test subject [1]; 1 mg in 20 ml of water,117.5 per minute
same,change in vivo at 1 mg,test subject [1]; [3],9%
same,change in vivo at 1 mg,test subject [1]; [4],0%
CN1CCN(C2=Nc3ccccc3Sc3ccc(Cl)cc32)CC1 [clothiapine],Average heart rate after,test subject [1]; 1 mg in 20 ml of water,86.4 per minute
same,change in vivo at 1 mg,test subject [1]; [3],-49%
same,change in vivo at 1 mg,test subject [1]; [4],-51%
COc1ccc2c3c1O[C@H]1[C@@H](O)C=C[C@H]4[C@@H](C2)N(C)CC[C@@]341 [codeine],Average heart rate after,test subject [1]; 0.2 mg in 20 ml of water,98.8 per minute
CN1CCC(=C2c3ccccc3C=Cc3ccccc32)CC1 [cyproheptadine],Average heart rate after,test subject [1]; 0.2 mg in 20 ml of water,81.6 per minute
same,change in vivo at 0.2 mg,"test subject [1]; Homo sapiens, 10 min, 0.2 mg in 20 ml of water, 10-minute test at 125 W, from change in humidity, read-out: Heat production (deviation from the average of all the tests)",-55%
same,change in vivo at 0.2 mg,"test subject [1]; Homo sapiens, 10 min, 0.2 mg in 20 ml of water, 10-minute test at 125 W, read-out: Change in the oxygen demand",-52%
COc1ccc2c(c1)[C@]13CCCC[C@@H]1[C@H](C2)N(C)CC3 [dextromethorphan],Average heart rate after,test subject [1]; 0.2 mg in 20 ml of water,89.2 per minute
CN1C(=O)CN=C(c2ccccc2)c2cc(Cl)ccc21 [diazepam],Average heart rate after,test subject [1]; 1 mg in 20 ml of water,81.0 per minute
CN(C)CCN1C(=O)c2ccccc2N(C)c2ccccc21 [dibenzepin],Average heart rate after,test subject [1]; 1 mg in 20 ml of water,83.6 per minute
same,change in vivo at 1 mg,test subject [1]; [3],-41%
same,change in vivo at 1 mg,test subject [1]; [4],-33%
CN(C)CCOC(C)(c1ccccc1)c1ccccn1 (stereo not drawn) [doxylamine],Average heart rate after,test subject [1]; 4 mg in 20 ml of water,109.5 per minute
same,change in vivo at 4 mg,"test subject [1]; Homo sapiens, 10 min, 4 mg in 20 ml of water, 10-minute test at 125 W, from change in humidity, read-out: Heat production (deviation from the average of all the tests)",0%
same,change in vivo at 4 mg,"test subject [1]; Homo sapiens, 10 min, 4 mg in 20 ml of water, 10-minute test at 125 W, read-out: Change in the oxygen demand",-6%
CN1C(=O)CN=C(c2ccccc2F)c2cc([N+](=O)[O-])ccc21 [flunitrazepam],Average heart rate after,test subject [1]; 1 mg in 20 ml of water,90.1 per minute
COc1ccc(Cl)cc1C(=O)NCCc1ccc(S(=O)(=O)NC(=O)NC2CCCCC2)cc1 [glibenclamide],Effect on heat production (change from control test without test substances),test subject [2]; 2.5 mg of glibenclamide,+400 kJ
same,Effect on oxygen demand (change from control test without test substances),test subject [2]; 2.5 mg of glibenclamide,+20 l
CN(C)CCCN1c2ccccc2CCc2ccccc21 [imipramine],Average heart rate after,test subject [1]; 1 mg in 20 ml of water,110.9 per minute
same,change in vivo at 1 mg,test subject [1]; [3],3%
same,change in vivo at 1 mg,test subject [1]; [4],-2%
Cc1ncc2n1-c1ccc(Cl)cc1C(c1ccccc1F)=NC2 [midazolam],Average heart rate after,test subject [1]; 1 mg in 20 ml of water,83.4 per minute
O=C1CN=C(c2ccccc2)c2cc([N+](=O)[O-])ccc2N1 [nitrazepam],Average heart rate after,test subject [1]; 1 mg in 20 ml of water,119.8 per minute
OCCN1CCN(CCCN2c3ccccc3C=Cc3ccccc32)CC1 [opipramol],Average heart rate after,test subject [1]; 1 mg in 20 ml of water,112.0 per minute
same,change in vivo at 1 mg,test subject [1]; [3],1%
same,change in vivo at 1 mg,test subject [1]; [4],-5%
O=C1Nc2ccc(Cl)cc2C(c2ccccc2)=NC1O (stereo not drawn) [oxazepam],Average heart rate after,test subject [1]; 1 mg in 20 ml of water,116.5 per minute
OC[C@H]1O[C@@](CO)(O[C@H]2O[C@H](CO)[C@@H](O)[C@H](O)[C@H]2O)[C@@H](O)[C@@H]1O [sucrose],Effect on heat production (change from control test without test substances),test subject [2]; 5 g of sucrose,+380 kJ
same,Effect on oxygen demand (change from control test without test substances),test subject [2]; 5 g of sucrose,+19 l
CSc1ccc2c(c1)N(CCC1CCCCN1C)c1ccccc1S2 (stereo not drawn) [thioridazine],Average heart rate after,test subject [1]; 1 mg in 20 ml of water,104.9 per minute
same,change in vivo at 1 mg,test subject [1]; [3],-26%
same,change in vivo at 1 mg,test subject [1]; [4],-31%
CC(CN(C)C)CN1c2ccccc2CCc2ccccc21 (stereo not drawn) [trimipramine],Average heart rate after,test subject [1]; 1 mg in 20 ml of water,109.8 per minute
same,change in vivo at 1 mg,test subject [1]; [3],2%
CN1CCN(C(=O)OC2c3nccnc3C(=O)N2c2ccc(Cl)cn2)CC1 (stereo not drawn) [zopiclone],Average heart rate after,test subject [1]; 1 mg in 20 ml of water,91.8 per minute
H-Arg-Asp-OH,Effect on heat production (change from control test without test substances),test subject [2]; 100 mg of H-Arg-Asp-OH,+260 kJ
same,Effect on oxygen demand (change from control test without test substances),test subject [2]; 100 mg of H-Arg-Asp-OH,+13 l
